Measurements as given in patent US4780238A (priority 1985, dated 1988).

Assay: In vitro chelation assay (mouse liver suspension, PAO-1 extracts)
Settings: for % Th Liver / % Th Supernatant: mouse liver suspension, 27 ppm thorium, ambient room temperature

Row | Substance | % Th Liver [%] | % Th Supernatant [%] | thorium adsorbed by the liver (27 ppm Th, within experimental error)
1 | Thorium succinate | 97 | 3 | –
2 | thorium nitrate | 99 | 1 | all of the thorium
